# miR-21 reporter: miR-21 reporter, rising signal. 340,000 tested, under 10 active. Potency, µM (highest dose often 38.3 µM). HeLa miR-21 FLuc reporter, luciferase, 48 h. AID 2288; active = well fitted rising curve with a large enough effect; inconclusive = small, poorly fitted or top-dose-only effect; inactive = no such curve, though single readings can be large or run the other way;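 further: miR-21 action dims this reporter so a rising signal means less miR-21 action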
#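 HeLa cells endogenously expressing miR-21, stably carrying CMV-driven firefly luciferase with a downstream miR-21 binding site, 2000 cells/well. Titrations up to approximately 40 uM, 48 hours; luciferase luminescence read.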
# Sfp inh: blocks B. subtilis Sfp PPTase activity. Biochemical Sfp PPTase activity, qHTS. actives 3.5% (n = 310,000). Q9F4F7. AID 1490. Potency, µM, hits mostly inhibitors;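 note: the enzyme is Sfp with the accession as filed and its product quenches rhodamine fluorescence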
#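 Buffer: 50 mM Hepes-Na pH 7.6, 10 mM MgCl2, 0.01% Nonidet P-40, 0.01% BSA. Enzyme 15 nM, pre-exposed to compound 15 min; substrates then added and fluorescence change tracked over 30 min.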
# KDM4E inh: JMJD2E (human) inhibition; B2RXH2; JMJD2E catalytic domain, FDH-coupled NADH fluorescence (FDH is formaldehyde dehydrogenase); Potency, µM (highest dose often 57.1 µM), hits mostly inhibitors; actives 1.6% (n = 230,000); active = well fitted inhibition curve with a large enough effect, not every such curve was filed as active; inconclusive = small, poorly fitted or top-dose-only effect, or another doubt; inactive = no such curve, though single readings can be large or run the other way; note: nearly all actives have a fitted effect of over 50% in size
# LMNA splice mod: changes lamin A minigene splicing in HeLa cells. HeLa LMNA splicing GFP/RFP minigene ratio, 48 h. Potency, µM (doses to about 46.1 µM), most hits filed as inhibitors. actives 0.01% (n = 200,000); active = well fitted inhibition curve with a large enough effect in the signal ratio, with a control signal flat, not every such curve was filed as active; inconclusive = small, poorly fitted or top-dose-only effect, or effect the other way, or a change in a side signal; the % refers to the signal ratio
#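 S3 HeLa stable clones carrying a lamin A-EGFP splicing minigene plus DsRed2 were seeded at 600 cells/well in Opti-MEM with 2% FBS, pin-dosed and incubated 48 h at 37°C. Acumen cytometry (488 nm) gave the GFP/RFP total-intensity ratio.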
# G9a inh: G9a (human) methyltransferase inhibition. Q96KQ7. G9a H3K9 monomethylation, AlphaScreen, 2 h. Potency, µM (series often up to 102 µM), hits mostly inhibitors. actives 8.8% (n = 350,000). AID 504332; note: nearly all actives have a fitted effect of over 75% in size
#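 G9a (20 nM) was preincubated 15 min with compound, then reacted 2 h at room temperature with 500 nM biotin-H3K9 peptide and 20 µM SAM. Monomethyl-H3K9 detected by AlphaScreen using anti-H3K9me1 antibody.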
# ALDH1A1 block: blocks purified human ALDH1A1 activity; P00352; Purified ALDH1A1, NADH fluorescence, propionaldehyde substrate; Potency, µM (series often up to 75.3 µM), actives largely listed as inhibitors; actives 7.3% (n = 220,000); AID 1030; active = well fitted inhibition curve with a large enough effect, not every such curve was filed as active; inconclusive = small, poorly fitted or top-dose-only effect, or another doubt; inactive = no such curve, though single readings can be large or run the other way
# Numbers stand for hits; 0 = inactive; ? = inconclusive; - = no result given; [ ] = remark or other dose. The list is not random: actives were taken first. Their share in the collection is about 13%. Unless noted, calls come from the whole dose curve; as a rule, active = well fitted curve in the direction sought with a large enough effect; inconclusive = small, poorly fitted or top-dose-only effect, or another doubt; inactive = no such curve, though single readings can be large; an effect the other way counts as inactive or inconclusive.
SMILES,miR-21 reporter,Sfp inh,KDM4E inh,LMNA splice mod,G9a inh,ALDH1A1 block
COc1cccc(N2C(=O)C3CCCN3C2=S)c1 (stereo not drawn),0,0,-,-,?,-
Cc1cccc(N2C(=O)C3CCCN3C2=S)c1 (stereo not drawn),0,0,-,-,44.7µM,-
O=C(Nc1ccc(-c2ccc([N+](=O)[O-])cc2)cc1)c1ccccc1F,0,0,0,?,50.1µM,?
O=C(CSc1ccc([N+](=O)[O-])cc1)NNC(=O)c1ccccc1F,0,0,-,-,50.1µM,-
O=C(Nc1ccc([N+](=O)[O-])cc1)c1ccccc1F,0,0,0,-,0,0
CC(C)c1ccc(NC(=O)c2ccccc2NC(=O)C2CCCCC2C(=O)O)cc1 (stereo not drawn),0,0,-,-,-,-
O=C(CN1CCN(c2ccc([N+](=O)[O-])cc2)CC1)c1ccccc1,0,?,-,-,7.08µM,-
CCn1c(N2CCN(CC(=O)c3ccc(OC)cc3)CC2)nc2ccccc21,0,0,0,?,0,?
COc1ccc2c(c1)c(C(=O)N1CCN(C)CC1)c(C)n2-c1ccccc1,0,0,?,0,0[12.7 µM],14.1µM
O=C(Cc1ccccc1)N1CCN(c2ccc([N+](=O)[O-])cc2)CC1,0,0,-,-,0,-
COc1ccc(N2CCN(CCC(=O)c3ccc4ccccc4c3)CC2)cc1,0,0,-,-,10µM,-
COc1ccc2c(c1)c(C(=O)O)c(C)n2-c1ccc(Cl)cc1,0,0,-,-,0,-
COc1ccc(C(=O)CN2CCN(c3cc(C)nc4ccccc34)CC2)cc1,0,0,0,-,12.6µM,-
COc1cc(NC(=O)CCN2CCN(c3ccccc3)CC2)cc(OC)c1,0,-,-,-,0,-
O=C(O)C1(c2ccccc2)CCN(S(=O)(=O)c2ccc(Cl)cc2)CC1,0,0,-,-,0[0.501 µM],-
COc1ccc(-c2nc3ncccc3o2)cc1NC(=O)c1ccco1,0,0,-,-,0,-
COC(=O)[C@@]1(Cc2ccc(F)cc2)[C@H]2c3cc(C(=O)N(C)C)n(Cc4cc(F)c(F)c(F)c4)c3C[C@H]2CN1C(=O)c1ccccc1,-,0,0,-,-,0
COc1ccc2c(c1)c(C(=O)CN1CCN(c3ccccc3)CC1)c(C)n2C,0,0,0,-,35.5µM,?
COc1ccc(N2CCN(C(=O)CCCC(=O)c3ccccc3)CC2)cc1,0,0,-,-,0,-
O=C(CN1CCN(c2ccccc2)CC1)c1ccc2cc[nH]c2c1,0,?,?,0,11.2µM,?
COc1ccc(N2CCN(CC(=O)N3c4ccccc4CC3C)CC2)cc1 (stereo not drawn),0,0,-,-,8.91µM,-
COc1ccc(N2CCN(CC(=O)c3ccccc3)CC2)cc1,0,0,-,-,11.2µM,-
CC1CCN(CC(=O)N2c3ccccc3CC2C)CC1 (stereo not drawn),0,0,0,-,0,?
Cc1nc2cnc(N3CCN(C)CC3)nc2n(C2CC2)c1=O,-,0,-,0,0[0.501 µM],?
O=C(CN1CC(=O)Nc2ccccc21)Nc1ccc(F)c(F)c1,0,39.8µM,?,0,8.91µM,6.31µM
SMILES,miR-21 reporter,Sfp inh,KDM4E inh,LMNA splice mod,G9a inh,ALDH1A1 block
COc1ccccc1NC(=O)CN1CC(=O)Nc2ccccc21,0,0,?,0,20µM,3.55µM
COc1ccccc1NC(=O)CN1CCN(c2ccccc2OC)CC1,0,0,0,-,0,0
Cc1ccc(NC(=O)CNC(=O)N2CC(=O)Nc3ccccc32)cc1F,0,0,-,-,0,-
Nc1ccc(O)c2c1C(=O)c1ccccc1C2=O,0,?,0,?,7.08µM,0
O=C1c2ccccc2C(=O)c2c(O)ccc(O)c21,-,?,0,-,-,0
O=C1c2ccccc2C(=O)c2c(O)c(O)cc(O)c21,-,0,22.4µM,-,?,?
Nc1ccc(NC(=O)c2ccccc2)c2c1C(=O)c1ccccc1C2=O,0,0,0,0,?,0
Nc1ccc(Br)c2c1C(=O)c1ccccc1C2=O,0,50.1µM,0,0,0[0.0925 µM],?
C#CCN(C(=O)c1ccc(OC)c(OC2CCN(C(C)C)CC2)c1)C1CCCCC1,0,0,-,-,0,-
COc1cc(-c2ccc(N=Nc3ccc4c(S(=O)(=O)O)cc(S(=O)(=O)O)c(N)c4c3O)c(OC)c2)ccc1N=Nc1ccc2c(S(=O)(=O)O)cc(S(=O)(=O)O)c(N)c2c1O,-,3.98µM,3.55µM,0,7.08µM,?
Cc1cccc(/C=C2/SC(=O)N(Cc3ccccc3Cl)C2=O)n1,0,0,0,0,0[12.7 µM],3.16µM
